# According to article PMC6639327, “PLPP/CIN-mediated NEDD4-2 S448 dephosphorylation regulates neuronal excitability via GluA1 ubiquitination” (Cell Death & Disease, 2019):
# T1: Neuronal precursor cell expressed developmentally downregulated 4-2 (NEDD4-2) (mouse (endogenous in hippocampus), UniProt Q8CFI0 1-1004)
# T1 construct: NEDD4-2 E3 ubiquitin ligase, endogenous in mouse hippocampus; S222 and S328 in murine NEDD4-2; source: endogenous, mouse hippocampal tissue lysate (RIPA buffer)
# T1 sequence (looked up): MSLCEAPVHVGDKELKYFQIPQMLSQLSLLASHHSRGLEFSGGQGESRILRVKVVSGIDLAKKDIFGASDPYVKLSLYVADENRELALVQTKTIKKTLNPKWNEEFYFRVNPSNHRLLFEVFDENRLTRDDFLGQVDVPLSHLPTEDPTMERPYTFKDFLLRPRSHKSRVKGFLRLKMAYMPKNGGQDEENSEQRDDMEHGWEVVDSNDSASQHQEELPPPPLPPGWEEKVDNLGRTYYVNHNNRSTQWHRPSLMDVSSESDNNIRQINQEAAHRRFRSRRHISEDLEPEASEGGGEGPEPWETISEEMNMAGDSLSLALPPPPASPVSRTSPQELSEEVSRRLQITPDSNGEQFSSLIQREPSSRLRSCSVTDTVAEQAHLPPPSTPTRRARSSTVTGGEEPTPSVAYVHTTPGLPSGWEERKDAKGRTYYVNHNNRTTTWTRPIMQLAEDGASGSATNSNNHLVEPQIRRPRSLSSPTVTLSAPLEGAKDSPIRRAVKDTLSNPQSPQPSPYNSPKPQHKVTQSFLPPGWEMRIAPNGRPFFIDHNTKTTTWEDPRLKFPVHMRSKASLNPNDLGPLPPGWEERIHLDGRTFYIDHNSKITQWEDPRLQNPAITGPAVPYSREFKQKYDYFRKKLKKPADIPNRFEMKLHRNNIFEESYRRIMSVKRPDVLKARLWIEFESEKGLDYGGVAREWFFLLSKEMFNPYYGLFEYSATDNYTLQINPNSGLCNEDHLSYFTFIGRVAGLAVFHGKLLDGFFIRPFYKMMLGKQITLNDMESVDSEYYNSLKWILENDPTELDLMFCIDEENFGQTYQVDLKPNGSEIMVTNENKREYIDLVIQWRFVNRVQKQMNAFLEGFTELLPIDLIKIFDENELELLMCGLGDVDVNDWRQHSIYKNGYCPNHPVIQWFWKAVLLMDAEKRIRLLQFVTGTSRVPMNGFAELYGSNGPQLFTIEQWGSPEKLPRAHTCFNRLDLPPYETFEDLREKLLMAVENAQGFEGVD
# B1: GluA1 subunit of the AMPA receptor (receptor, mouse (endogenous in hippocampus), UniProt P23818 19-907, looked up)
# chain: ANFPNNIQIGGLFPNQQSQEHAAFRFALSQLTEPPKLLPQIDIVNISDSFEMTYRFCSQFSKGVYAIFGFYERRTVNMLTSFCGALHVCFITPSFPVDTSNQFVLQLRPELQEALISIIDHYKWQTFVYIYDADRGLSVLQRVLDTAAEKNWQVTAVNILTTTEEGYRMLFQDLEKKKERLVVVDCESERLNAILGQIVKLEKNGIGYHYILANLGFMDIDLNKFKESGANVTGFQLVNYTDTIPARIMQQWRTSDARDHTRVDWKRPKYTSALTYDGVKVMAEAFQSLRRQRIDISRRGNAGDCLANPAVPWGQGIDIQRALQQVRFEGLTGNVQFNEKGRRTNYTLHVIEMKHDGIRKIGYWNEDDKFVPAATDAQAGGDNSSVQNRTYIVTTILEDPYVMLKKNANQFEGNDRYEGYCVELAAEIAKHVGYSYRLEIVSDGKYGARDPDTKAWNGMVGELVYGRADVAVAPLTITLVREEVIDFSKPFMSLGISIMIKKPQKSKPGVFSFLDPLAYEIWMCIVFAYIGVSVVLFLVSRFSPYEWHSEEFEEGRDQTTSDQSNEFGIFNSLWFSLGAFMQQGCDISPRSLSGRIVGGVWWFFTLIIISSYTANLAAFLTVERMVSPIESAEDLAKQTEIAYGTLEAGSTKEFFRRSKIAVFEKMWTYMKSAEPSVFVRTTEEGMIRVRKSKGKYAYLLESTMNEYIEQRKPCDTMKVGGNLDSKGYGIATPKGSALRGPVNLAVLKLSEQGVLDKLKSKWWYDKGECGSKDSGSKDKTSALSLSNVAGVFYILIGGLGLAMLVALIEFCYKSRSESKRMKGFCLIPQQSINEAIRTSTLPRNSGAGASGGSGSGENGRVVSQDFPKSMQSIPCMSHSSGMPLGATGL
# notes: AMPA receptor subunit GluA1, endogenous in mouse hippocampus; source: endogenous, mouse hippocampal tissue lysate (RIPA buffer)
# Target: T1, Neuronal precursor cell expressed …
# Assay: co-IP; mouse hippocampal tissue lysed in RIPA buffer with protease and phosphatase inhibitors; equal protein incubated with NEDD4-2, ubiquitin or GluA1 antibody and protein G sepharose at 4 °C overnight; western blot; WT, PLPP/CIN^-/- and PLPP/CIN^Tg mice, saline or KA (25 mg/kg, 2 h), control or NEDD4-2 siRNA
# Conditions: partners not purified
binder,measurement,value
B1,fold of WT mouse level (in PLPP/CIN^Tg mice),~0.5 fold
